Assay results: patent publication US9987276B2

Sequences of proteins named here, by UniProt entry; tags and fusion partners are left off. A change or cut given only in a name is not applied to a line headed by its entry.
UniProt Q06187: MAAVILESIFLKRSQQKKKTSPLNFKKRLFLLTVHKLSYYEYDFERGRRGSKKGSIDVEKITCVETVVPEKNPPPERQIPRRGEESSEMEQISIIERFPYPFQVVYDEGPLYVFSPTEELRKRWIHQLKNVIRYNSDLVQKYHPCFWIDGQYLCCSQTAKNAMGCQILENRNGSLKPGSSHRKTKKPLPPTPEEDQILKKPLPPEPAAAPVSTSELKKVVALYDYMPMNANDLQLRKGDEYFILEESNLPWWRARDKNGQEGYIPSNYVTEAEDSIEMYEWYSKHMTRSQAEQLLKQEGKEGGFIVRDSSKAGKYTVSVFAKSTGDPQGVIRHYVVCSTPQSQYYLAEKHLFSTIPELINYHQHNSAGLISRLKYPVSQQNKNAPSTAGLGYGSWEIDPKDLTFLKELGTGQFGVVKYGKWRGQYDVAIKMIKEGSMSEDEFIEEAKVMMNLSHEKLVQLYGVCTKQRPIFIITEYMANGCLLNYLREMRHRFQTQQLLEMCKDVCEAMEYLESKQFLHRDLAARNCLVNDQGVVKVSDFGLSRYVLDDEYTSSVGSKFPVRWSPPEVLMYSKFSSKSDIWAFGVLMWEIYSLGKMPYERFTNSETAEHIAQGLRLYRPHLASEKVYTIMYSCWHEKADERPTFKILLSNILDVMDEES

Biological target: BTK (Homo sapiens (Human), UniProt Q06187)
Assay: Omnia assay for potency assessment against BTK
Assay type: biochemical
Conditions: read-out: BTK Inhibition (IC50)

C=CC(=O)Nc1cccc(Nc2nc(Nc3ccc(Oc4ccnc(C(=O)NC)c4)cc3)ncc2F)c1 [Compound I-342, 4-(4-(4-(3-acrylamidophenylamino)-5-fluoropyrimidin-2-ylamino)phenoxy)-N-methylpicolinamide]
IC50: < 10 nM
